{
  "source": "patent US11793797B2",
  "about": "“Uses of a lysyl oxidase-like 2 inhibitor” (PHARMAKEA, INC., priority 2016, dated 2023)",
  "test_system": "bleomycin-induced lung fibrosis",
  "experiment": "Mouse oropharyngeal bleomycin model of lung fibrosis",
  "format": "in vivo",
  "details": "tested form: HCl",
  "data": [
    {"compound": "NCc1cc(Oc2cccc(C(=O)N3C[C@@H](O)[C@H](F)C3)c2)nc(C(F)(F)F)c1", "note": "(relative stereo)", "values": [
      {"measurement": "minimal dose to achieve maximal anti-fibrotic efficacy", "setting": "prophylactic 14-day dose response, oral QD", "value": 30, "unit": "mg/kg"},
      {"measurement": "Ashcroft score (lung fibrosis), dose frequency", "setting": "prophylactic, oral 60 mg/kg QD, Q2D or Q3D, Day 14", "value": "reduced lung fibrosis"},
      {"measurement": "Ashcroft score (lung fibrosis), dose response", "setting": "prophylactic, oral 3, 10, 30 or 60 mg/kg/day, lungs harvested Day 14", "value": "reduced fibrosis in a dose-related manner"}
    ]}
  ]
}
